From article PMC10009755, “Discovery and Characterization of BAY-805, a Potent and Selective Inhibitor of Ubiquitin-Specific Protease USP21” (Journal of Medicinal Chemistry, 2023)

Amino acid sequences for entries named in this document (tags omitted). A change or cut given only in a name is not applied to a line headed by its entry. Residues count along the entry.
UniProt Q08345, 19-913: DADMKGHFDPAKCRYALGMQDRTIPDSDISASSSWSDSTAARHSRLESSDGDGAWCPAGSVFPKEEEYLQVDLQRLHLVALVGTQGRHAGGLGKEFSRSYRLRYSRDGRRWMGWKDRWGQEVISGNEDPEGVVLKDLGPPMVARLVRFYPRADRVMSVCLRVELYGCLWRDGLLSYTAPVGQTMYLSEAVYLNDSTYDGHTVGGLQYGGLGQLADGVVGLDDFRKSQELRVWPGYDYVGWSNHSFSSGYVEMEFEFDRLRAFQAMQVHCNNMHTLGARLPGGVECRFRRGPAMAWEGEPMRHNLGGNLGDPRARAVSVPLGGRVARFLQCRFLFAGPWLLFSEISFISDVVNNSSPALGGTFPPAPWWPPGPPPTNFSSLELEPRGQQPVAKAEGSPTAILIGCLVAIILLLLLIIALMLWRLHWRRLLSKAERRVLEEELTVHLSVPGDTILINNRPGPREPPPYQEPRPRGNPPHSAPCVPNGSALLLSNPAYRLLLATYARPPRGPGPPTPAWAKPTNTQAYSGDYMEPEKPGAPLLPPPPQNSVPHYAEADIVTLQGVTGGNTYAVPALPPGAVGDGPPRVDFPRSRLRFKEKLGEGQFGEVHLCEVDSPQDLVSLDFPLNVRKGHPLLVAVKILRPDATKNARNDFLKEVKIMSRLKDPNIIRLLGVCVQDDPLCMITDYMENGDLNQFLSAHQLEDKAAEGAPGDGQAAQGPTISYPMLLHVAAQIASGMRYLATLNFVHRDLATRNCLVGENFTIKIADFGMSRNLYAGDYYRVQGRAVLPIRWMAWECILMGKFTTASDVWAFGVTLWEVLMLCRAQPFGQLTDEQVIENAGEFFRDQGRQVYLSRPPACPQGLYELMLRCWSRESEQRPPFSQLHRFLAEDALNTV
UniProt Q15303, 26-1308: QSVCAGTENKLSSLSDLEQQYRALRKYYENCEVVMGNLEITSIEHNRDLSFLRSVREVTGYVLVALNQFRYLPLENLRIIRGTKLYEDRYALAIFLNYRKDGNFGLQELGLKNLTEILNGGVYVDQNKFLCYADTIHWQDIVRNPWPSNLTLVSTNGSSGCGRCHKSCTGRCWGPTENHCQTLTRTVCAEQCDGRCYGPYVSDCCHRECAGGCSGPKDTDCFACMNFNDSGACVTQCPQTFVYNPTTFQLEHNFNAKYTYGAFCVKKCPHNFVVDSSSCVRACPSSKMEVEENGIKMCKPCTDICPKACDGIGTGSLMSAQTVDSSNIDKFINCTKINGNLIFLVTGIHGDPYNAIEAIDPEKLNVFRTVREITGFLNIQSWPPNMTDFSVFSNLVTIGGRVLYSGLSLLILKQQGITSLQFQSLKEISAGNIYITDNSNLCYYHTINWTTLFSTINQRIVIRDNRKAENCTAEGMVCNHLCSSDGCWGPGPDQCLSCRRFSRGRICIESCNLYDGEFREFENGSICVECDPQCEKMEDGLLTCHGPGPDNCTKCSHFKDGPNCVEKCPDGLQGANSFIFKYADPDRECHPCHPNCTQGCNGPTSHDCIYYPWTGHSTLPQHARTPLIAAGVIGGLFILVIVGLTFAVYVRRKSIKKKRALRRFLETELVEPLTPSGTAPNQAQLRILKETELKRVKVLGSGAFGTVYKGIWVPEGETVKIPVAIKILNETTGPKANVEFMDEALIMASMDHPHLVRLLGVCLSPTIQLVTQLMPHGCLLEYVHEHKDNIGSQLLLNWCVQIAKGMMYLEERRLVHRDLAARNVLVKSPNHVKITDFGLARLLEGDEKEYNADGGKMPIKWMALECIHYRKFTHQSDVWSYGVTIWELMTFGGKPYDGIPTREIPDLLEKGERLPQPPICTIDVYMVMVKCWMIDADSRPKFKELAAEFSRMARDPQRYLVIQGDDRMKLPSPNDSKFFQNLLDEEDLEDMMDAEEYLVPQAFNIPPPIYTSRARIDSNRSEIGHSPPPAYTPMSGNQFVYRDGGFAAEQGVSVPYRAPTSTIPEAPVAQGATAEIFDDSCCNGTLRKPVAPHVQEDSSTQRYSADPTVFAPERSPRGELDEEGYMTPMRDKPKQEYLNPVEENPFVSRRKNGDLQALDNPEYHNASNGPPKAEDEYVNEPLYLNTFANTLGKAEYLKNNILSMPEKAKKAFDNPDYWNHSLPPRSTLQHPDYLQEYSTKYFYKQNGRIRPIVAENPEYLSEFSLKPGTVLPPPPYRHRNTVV
UniProt Q02156: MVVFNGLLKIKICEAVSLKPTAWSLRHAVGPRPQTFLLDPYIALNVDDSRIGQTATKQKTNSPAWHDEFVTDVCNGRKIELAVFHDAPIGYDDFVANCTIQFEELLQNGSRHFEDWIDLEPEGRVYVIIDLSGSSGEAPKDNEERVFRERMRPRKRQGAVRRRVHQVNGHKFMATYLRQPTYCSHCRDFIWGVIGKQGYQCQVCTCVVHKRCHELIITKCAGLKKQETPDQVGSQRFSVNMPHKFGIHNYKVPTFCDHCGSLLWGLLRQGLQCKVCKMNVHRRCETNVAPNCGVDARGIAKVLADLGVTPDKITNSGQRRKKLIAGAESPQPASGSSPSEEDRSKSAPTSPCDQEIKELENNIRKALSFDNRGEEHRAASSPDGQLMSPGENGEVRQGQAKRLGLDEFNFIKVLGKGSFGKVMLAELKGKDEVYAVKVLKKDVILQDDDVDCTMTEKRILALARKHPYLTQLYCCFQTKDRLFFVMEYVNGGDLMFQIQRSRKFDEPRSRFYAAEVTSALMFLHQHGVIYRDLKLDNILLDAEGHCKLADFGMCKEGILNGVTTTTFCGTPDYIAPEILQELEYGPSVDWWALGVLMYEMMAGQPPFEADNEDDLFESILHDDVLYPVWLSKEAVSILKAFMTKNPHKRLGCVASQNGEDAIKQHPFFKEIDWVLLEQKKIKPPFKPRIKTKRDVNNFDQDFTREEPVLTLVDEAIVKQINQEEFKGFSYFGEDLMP
UniProt Q9BZL6: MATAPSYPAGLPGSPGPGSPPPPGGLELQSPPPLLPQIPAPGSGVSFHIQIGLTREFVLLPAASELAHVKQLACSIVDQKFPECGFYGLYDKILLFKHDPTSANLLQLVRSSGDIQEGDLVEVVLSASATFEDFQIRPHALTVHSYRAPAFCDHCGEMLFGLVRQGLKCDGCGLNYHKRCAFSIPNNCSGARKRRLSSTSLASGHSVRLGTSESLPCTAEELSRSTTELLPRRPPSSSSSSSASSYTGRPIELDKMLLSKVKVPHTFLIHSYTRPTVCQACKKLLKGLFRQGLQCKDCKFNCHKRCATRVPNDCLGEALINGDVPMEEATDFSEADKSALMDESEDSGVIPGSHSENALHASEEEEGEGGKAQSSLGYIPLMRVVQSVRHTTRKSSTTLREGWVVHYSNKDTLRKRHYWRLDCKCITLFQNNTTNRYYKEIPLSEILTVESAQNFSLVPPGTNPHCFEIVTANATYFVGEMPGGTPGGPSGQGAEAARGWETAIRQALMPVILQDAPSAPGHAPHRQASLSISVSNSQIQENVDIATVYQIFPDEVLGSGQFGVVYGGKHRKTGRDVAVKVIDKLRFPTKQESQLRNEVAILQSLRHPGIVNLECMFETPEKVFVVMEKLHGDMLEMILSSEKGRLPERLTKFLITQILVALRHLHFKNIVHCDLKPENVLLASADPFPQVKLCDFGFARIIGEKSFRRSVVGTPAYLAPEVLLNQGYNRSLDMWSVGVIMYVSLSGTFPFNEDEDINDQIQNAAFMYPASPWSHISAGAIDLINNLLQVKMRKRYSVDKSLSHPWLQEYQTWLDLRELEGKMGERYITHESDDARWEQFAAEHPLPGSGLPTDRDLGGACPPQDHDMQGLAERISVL
UniProt Q9C098: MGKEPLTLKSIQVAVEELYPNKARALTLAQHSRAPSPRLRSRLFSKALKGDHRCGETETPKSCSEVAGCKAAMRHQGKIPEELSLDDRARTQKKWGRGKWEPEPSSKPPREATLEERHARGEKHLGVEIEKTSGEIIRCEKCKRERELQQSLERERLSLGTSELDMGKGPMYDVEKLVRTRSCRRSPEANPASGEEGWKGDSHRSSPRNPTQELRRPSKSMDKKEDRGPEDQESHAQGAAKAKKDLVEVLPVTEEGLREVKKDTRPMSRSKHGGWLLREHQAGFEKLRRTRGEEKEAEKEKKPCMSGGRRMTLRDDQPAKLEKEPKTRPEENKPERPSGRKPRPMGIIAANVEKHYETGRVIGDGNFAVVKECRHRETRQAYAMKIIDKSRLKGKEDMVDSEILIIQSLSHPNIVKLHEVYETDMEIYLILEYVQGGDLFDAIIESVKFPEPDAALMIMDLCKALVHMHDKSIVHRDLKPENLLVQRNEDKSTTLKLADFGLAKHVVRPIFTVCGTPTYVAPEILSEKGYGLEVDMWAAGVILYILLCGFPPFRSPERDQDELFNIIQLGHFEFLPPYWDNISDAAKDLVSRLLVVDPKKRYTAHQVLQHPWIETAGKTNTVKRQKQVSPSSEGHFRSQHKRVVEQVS
UniProt Q9NRM7: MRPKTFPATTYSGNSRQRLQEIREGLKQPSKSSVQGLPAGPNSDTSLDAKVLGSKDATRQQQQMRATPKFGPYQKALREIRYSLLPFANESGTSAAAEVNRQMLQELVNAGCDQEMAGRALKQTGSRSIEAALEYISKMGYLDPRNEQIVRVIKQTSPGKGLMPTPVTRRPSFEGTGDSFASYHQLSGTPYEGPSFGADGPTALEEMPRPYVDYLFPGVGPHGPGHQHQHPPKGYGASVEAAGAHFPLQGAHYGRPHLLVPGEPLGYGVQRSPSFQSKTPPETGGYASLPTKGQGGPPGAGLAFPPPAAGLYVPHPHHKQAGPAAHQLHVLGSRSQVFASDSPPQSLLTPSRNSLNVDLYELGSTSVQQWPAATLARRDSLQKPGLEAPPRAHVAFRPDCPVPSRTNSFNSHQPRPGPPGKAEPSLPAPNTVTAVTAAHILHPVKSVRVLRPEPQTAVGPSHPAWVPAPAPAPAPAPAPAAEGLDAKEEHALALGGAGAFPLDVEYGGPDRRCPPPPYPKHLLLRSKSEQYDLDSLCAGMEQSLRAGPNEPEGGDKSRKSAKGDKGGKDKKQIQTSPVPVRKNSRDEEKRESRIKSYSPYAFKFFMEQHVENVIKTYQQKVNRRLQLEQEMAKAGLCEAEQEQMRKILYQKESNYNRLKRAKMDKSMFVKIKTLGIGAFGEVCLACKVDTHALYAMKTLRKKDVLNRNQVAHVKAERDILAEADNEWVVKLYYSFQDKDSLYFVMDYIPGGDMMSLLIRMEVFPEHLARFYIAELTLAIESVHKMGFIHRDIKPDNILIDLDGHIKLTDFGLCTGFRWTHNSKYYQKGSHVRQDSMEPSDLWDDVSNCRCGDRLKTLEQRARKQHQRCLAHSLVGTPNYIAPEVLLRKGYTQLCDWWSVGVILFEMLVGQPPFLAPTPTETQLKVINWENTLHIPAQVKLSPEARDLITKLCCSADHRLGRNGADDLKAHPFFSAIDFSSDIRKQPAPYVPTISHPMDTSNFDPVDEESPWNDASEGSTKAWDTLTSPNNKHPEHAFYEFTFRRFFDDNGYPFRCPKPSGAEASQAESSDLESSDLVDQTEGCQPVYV
UniProt Q06187: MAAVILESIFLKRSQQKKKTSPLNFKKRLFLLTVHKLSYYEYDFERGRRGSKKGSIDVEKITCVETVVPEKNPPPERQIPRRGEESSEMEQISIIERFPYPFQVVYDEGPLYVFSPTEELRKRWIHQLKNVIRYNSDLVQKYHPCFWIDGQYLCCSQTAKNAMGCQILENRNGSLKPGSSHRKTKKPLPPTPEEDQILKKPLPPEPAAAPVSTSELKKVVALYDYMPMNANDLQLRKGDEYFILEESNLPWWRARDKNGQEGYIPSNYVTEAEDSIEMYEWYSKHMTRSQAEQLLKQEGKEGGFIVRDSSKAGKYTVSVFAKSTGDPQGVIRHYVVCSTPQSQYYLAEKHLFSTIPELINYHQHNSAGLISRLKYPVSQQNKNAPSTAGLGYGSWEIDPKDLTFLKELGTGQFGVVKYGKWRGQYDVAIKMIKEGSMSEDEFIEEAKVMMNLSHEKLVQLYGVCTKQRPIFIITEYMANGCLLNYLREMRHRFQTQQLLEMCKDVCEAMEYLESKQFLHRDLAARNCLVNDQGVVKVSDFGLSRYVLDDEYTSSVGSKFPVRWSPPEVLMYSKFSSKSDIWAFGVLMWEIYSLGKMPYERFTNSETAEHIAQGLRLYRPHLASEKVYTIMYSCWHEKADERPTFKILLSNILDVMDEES
UniProt O75716, whole entry: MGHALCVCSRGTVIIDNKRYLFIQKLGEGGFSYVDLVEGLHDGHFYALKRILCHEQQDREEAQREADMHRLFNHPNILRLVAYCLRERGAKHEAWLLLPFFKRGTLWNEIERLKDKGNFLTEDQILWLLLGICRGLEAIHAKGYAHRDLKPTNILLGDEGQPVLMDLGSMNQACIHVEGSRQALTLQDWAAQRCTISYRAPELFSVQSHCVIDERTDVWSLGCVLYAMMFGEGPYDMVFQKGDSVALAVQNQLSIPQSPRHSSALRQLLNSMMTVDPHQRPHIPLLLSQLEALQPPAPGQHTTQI

Assays:
DYRK1B(h) = DYRK1B(h) (Homo sapiens, UniProt Q9Y463); assay: biochemical
DDR1(h) = DDR1(h) (Homo sapiens, UniProt Q08345); assay: biochemical
MYO3B(h) = MYO3B(h) (Homo sapiens, UniProt Q8WXR4); assay: biochemical
ErbB4(h) = ErbB4(h) (Homo sapiens, UniProt Q15303); assay: biochemical
CDK2/cyclinA(h) = CDK2/cyclinA(h) (Homo sapiens, UniProt P24941); assay: biochemical
EphA4(h) = EphA4(h) (Homo sapiens, UniProt P54764); assay: biochemical
USP5 (+Ubiquitin @ Bmax) = USP5 (+Ubiquitin @ Bmax) (Homo sapiens, UniProt P45974); assay: biochemical; details: read-out: Activity (% Control)
Met(h) = Met(h) (Homo sapiens, UniProt P08581); assay: biochemical
c-RAF(h) = c-RAF(h) (Homo sapiens, UniProt P04049); assay: biochemical
TNIK(h) = TNIK(h) (Homo sapiens, UniProt Q9UKE5); assay: biochemical
Plk1(h) = Plk1(h) (Homo sapiens, UniProt P53350); assay: biochemical
PTK5(h) = PTK5(h) (Homo sapiens, UniProt P42685); assay: biochemical
PKCepsilon(h) = PKCepsilon(h) (Homo sapiens, UniProt Q02156); assay: biochemical
PKCtheta(h) = PKCtheta(h) (Homo sapiens, UniProt Q04759); assay: biochemical
CK1gamma3(h) = CK1gamma3(h) (Homo sapiens, UniProt Q9Y6M4); assay: biochemical
PKD2(h) = PKD2(h) (Homo sapiens, UniProt Q9BZL6); assay: biochemical
CK2alpha2(h) = CK2alpha2(h) (Homo sapiens, UniProt P19784); assay: biochemical
DCAMKL3(h) = DCAMKL3(h) (Homo sapiens, UniProt Q9C098); assay: biochemical
VRK1(h) = VRK1(h) (Homo sapiens, UniProt Q99986); assay: biochemical
CDKL2(h) = CDKL2(h) (Homo sapiens, UniProt Q92772); assay: biochemical
[1] = tested on: Purinergic P2Y, Non-Selective; details: 10 µM
PKCiota(h) = PKCiota(h) (Homo sapiens, UniProt P41743); assay: biochemical
LATS2(h) = LATS2(h) (Homo sapiens, UniProt Q9NRM7); assay: biochemical
MLK2(h) = MLK2(h) (Homo sapiens, UniProt Q02779); assay: biochemical
MST4(h) = MST4(h) (Homo sapiens, UniProt Q9P289); assay: biochemical
ULK1(h) = ULK1(h) (Homo sapiens, UniProt O75385); assay: biochemical
PDK1(h) = PDK1(h) (Homo sapiens, UniProt O15530); assay: biochemical
HIPK3(h) = HIPK3(h) (Homo sapiens, UniProt Q9H422); assay: biochemical
Rsk3(h) = Rsk3(h) (Homo sapiens, UniProt Q15349); assay: biochemical
LIMK2(h) = LIMK2(h) (Homo sapiens, UniProt P53671); assay: biochemical
ROCK-II(h) = ROCK-II(h) (Homo sapiens, UniProt O75116); assay: biochemical
PAK6(h) = PAK6(h) (Homo sapiens, UniProt Q9NQU5); assay: biochemical
Thromboxane Synthase = Thromboxane Synthase (Homo sapiens, UniProt P24557); assay: biochemical; details: read-out: % Inh.
Histamine H2 = Histamine H2 (Homo sapiens, UniProt P25021); assay: biochemical; details: read-out: % Inh.
ALK4(h) = ALK4(h) (Homo sapiens, UniProt P36896); assay: biochemical
BTK(h) = BTK(h) (Homo sapiens, UniProt Q06187); assay: biochemical
ErbB2(h) = ErbB2(h) (Homo sapiens, UniProt P04626); assay: biochemical
Abl(h) = Abl(h) (Homo sapiens, UniProt P00519); assay: biochemical
Tec(h) activated = Tec(h) activated (Homo sapiens, UniProt P42680); assay: biochemical
DYRK3(h) = DYRK3(h) (Homo sapiens, UniProt O43781); assay: biochemical
OTUD6B = OTUD6B (Homo sapiens, UniProt Q8N6M0); assay: biochemical; details: read-out: Activity (% Control)
STK16(h) = STK16(h) (Homo sapiens, UniProt O75716); assay: biochemical

Molecule `CC(C)C[C@@H](NC(=O)C1(C(F)(F)F)CCCCC1)C(=O)Nc1nnc(Cc2ccc(C#N)cc2)s1` [Compound 21, N-[(1R)-1-[[5-[(4-Cyanophenyl)methyl]-1,3,4-thiadiazol-2-yl]carbamoyl]-3-methyl-butyl]-1-(trifluoromethyl)cyclohexanecarboxamide] has an inhibition at 10 µM (DYRK1B(h)) of 2.8%, an inhibition at 10 µM (DDR1(h)) of -6.82% and an inhibition at 10 µM (MYO3B(h)) of 2.08%. For the same molecule, the inhibition at 10 µM (ErbB4(h)) was -3.07%, the inhibition at 10 µM (CDK2/cyclinA(h)) was -20.1% and the inhibition at 10 µM (EphA4(h)) was 5.39%. For the same molecule, the remaining activity at 1 µM (USP5 (+Ubiquitin @ Bmax)) was 93%, the remaining activity at 10 µM (USP5 (+Ubiquitin @ Bmax)) was 101% and the inhibition at 10 µM (Met(h)) was 12.6%. The inhibition at 10 µM (c-RAF(h)) was -9.81%, the inhibition at 10 µM (TNIK(h)) was 18.4% and the inhibition at 10 µM (Plk1(h)) was 1.06%. The inhibition at 10 µM (PTK5(h)) was -5.66%, the inhibition at 10 µM (PKCepsilon(h)) was 21.1% and the inhibition at 10 µM (PKCtheta(h)) was -12.6%. For the same molecule, the inhibition at 10 µM (CK1gamma3(h)) was 8%, the inhibition at 10 µM (PKD2(h)) was 8.25% and the inhibition at 10 µM (CK2alpha2(h)) was -3%. It also gave an inhibition at 10 µM (DCAMKL3(h)) of 4.88%, an inhibition at 10 µM (VRK1(h)) of 3.92% and an inhibition at 10 µM (CDKL2(h)) of 8.38%. The “% Inh.” value [1] was 5, the inhibition at 10 µM (PKCiota(h)) was 0.81% and the inhibition at 10 µM (LATS2(h)) was 15.2%. For the same molecule, the inhibition at 10 µM (MLK2(h)) was 10.2%, the inhibition at 10 µM (MST4(h)) was 6.75% and the inhibition at 10 µM (ULK1(h)) was 6.45%. It also gave an inhibition at 10 µM (PDK1(h)) of 11.4%, an inhibition at 10 µM (HIPK3(h)) of 2.03% and an inhibition at 10 µM (Rsk3(h)) of -1.16%. It also gave an inhibition at 10 µM (LIMK2(h)) of 2.4%, an inhibition at 10 µM (ROCK-II(h)) of 2.99% and an inhibition at 10 µM (PAK6(h)) of 6.95%. For the same molecule, the inhibition at 10 µM (Thromboxane Synthase) was -1%, the inhibition at 10 µM (Histamine H2) was -16% and the inhibition at 10 µM (ALK4(h)) was 3.05%. For the same molecule, the inhibition at 10 µM (BTK(h)) was 7.26%, the inhibition at 10 µM (ErbB2(h)) was -7.69% and the inhibition at 10 µM (Abl(h)) was 5.25%. It also gave an inhibition at 10 µM (Tec(h) activated) of 12.7%, an inhibition at 10 µM (DYRK3(h)) of -6.78% and a remaining activity at 1 µM (OTUD6B) of 104%. It also gave a remaining activity at 10 µM (OTUD6B) of 92% and an inhibition at 10 µM (STK16(h)) of -9.06%.
With `CC(C)C[C@H](NC(=O)C1(C(F)(F)F)CCCCC1)C(=O)Nc1nnc(Cc2ccc(C#N)cc2)s1` [Compound 22, CC(C)C[C@H](NC(=O)C1(CCCCC1)C(F)(F)F)C(=O)Nc2nnc(Cc3ccc(cc3)C#N)s2] the inhibition at 10 µM (DYRK1B(h)) was -3.27%, the inhibition at 10 µM (DDR1(h)) was -7.03% and the inhibition at 10 µM (MYO3B(h)) was 3.59%. For the same molecule, the inhibition at 10 µM (ErbB4(h)) was -3.69%, the inhibition at 10 µM (CDK2/cyclinA(h)) was -15.3% and the inhibition at 10 µM (EphA4(h)) was 9.3%. The remaining activity at 1 µM (USP5 (+Ubiquitin @ Bmax)) was 96%, the remaining activity at 10 µM (USP5 (+Ubiquitin @ Bmax)) was 101% and the inhibition at 10 µM (Met(h)) was 7.84%. The inhibition at 10 µM (c-RAF(h)) was -10.5%, the inhibition at 10 µM (TNIK(h)) was 8.51% and the inhibition at 10 µM (Plk1(h)) was 5.71%. The inhibition at 10 µM (PTK5(h)) was -6.75%, the inhibition at 10 µM (PKCepsilon(h)) was -0.61% and the inhibition at 10 µM (PKCtheta(h)) was -8.12%. The inhibition at 10 µM (CK1gamma3(h)) was 2.37%, the inhibition at 10 µM (PKD2(h)) was 0.72% and the inhibition at 10 µM (CK2alpha2(h)) was 0.25%. It also gave an inhibition at 10 µM (DCAMKL3(h)) of 4.5%, an inhibition at 10 µM (VRK1(h)) of -1.15% and an inhibition at 10 µM (CDKL2(h)) of 10.4%. For the same molecule, the “% Inh.” value [1] was 22, the inhibition at 10 µM (PKCiota(h)) was 2.1% and the inhibition at 10 µM (LATS2(h)) was 4.04%. It also gave an inhibition at 10 µM (MLK2(h)) of 8.77%, an inhibition at 10 µM (MST4(h)) of 3.88% and an inhibition at 10 µM (ULK1(h)) of -0.03%. For the same molecule, the inhibition at 10 µM (PDK1(h)) was 9.31%, the inhibition at 10 µM (HIPK3(h)) was -2.65% and the inhibition at 10 µM (Rsk3(h)) was 0.77%. It also gave an inhibition at 10 µM (LIMK2(h)) of -0.4%, an inhibition at 10 µM (ROCK-II(h)) of -4.94% and an inhibition at 10 µM (PAK6(h)) of 3.73%. It also gave an inhibition at 10 µM (Thromboxane Synthase) of 15%, an inhibition at 10 µM (Histamine H2) of 0% and an inhibition at 10 µM (ALK4(h)) of 3.46%. It also gave an inhibition at 10 µM (BTK(h)) of 0.23%, an inhibition at 10 µM (ErbB2(h)) of -8.06% and an inhibition at 10 µM (Abl(h)) of -14.7%. For the same molecule, the inhibition at 10 µM (Tec(h) activated) was 7.04%, the inhibition at 10 µM (DYRK3(h)) was -6.72% and the remaining activity at 1 µM (OTUD6B) was 94%. It also gave a remaining activity at 10 µM (OTUD6B) of 100% and an inhibition at 10 µM (STK16(h)) of -9.98%.
